Test results: patent US5817700A, “Bisaryl cyclobutenes derivatives as cyclooxygenase inhibitors” (Merck Frosst Canada, Inc., priority 1997, dated 1998)

Sequences of proteins named here, by UniProt entry; tags and fusion partners are left off. Residues count along the entry.
UniProt P23219, 24-599: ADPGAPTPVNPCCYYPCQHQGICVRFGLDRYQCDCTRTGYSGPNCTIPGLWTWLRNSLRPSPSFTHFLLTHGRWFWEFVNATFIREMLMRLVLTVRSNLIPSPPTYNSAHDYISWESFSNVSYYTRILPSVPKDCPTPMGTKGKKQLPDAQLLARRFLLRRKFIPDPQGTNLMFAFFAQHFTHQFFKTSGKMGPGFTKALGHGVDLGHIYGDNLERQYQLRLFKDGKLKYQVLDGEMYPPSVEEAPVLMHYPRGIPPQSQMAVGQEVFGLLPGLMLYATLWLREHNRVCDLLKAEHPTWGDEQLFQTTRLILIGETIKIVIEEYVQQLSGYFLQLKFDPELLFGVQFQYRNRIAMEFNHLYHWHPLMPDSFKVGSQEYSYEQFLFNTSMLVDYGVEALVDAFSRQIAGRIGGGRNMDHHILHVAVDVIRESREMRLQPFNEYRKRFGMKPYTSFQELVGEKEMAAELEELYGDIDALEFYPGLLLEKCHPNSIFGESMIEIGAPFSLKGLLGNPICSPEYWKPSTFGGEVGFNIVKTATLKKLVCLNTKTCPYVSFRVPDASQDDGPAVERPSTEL

Biological target: T1, COX-1 (U-937 cells) (Homo sapiens, UniProt P23219)
T1 construct: human U-937 cells (which specifically express COX-1); endogenous in cells; host or cells: human U-937 cells
Assay: Whole cell assay for COX-1 in human U-937 cells (inhibition of PGE2 production)
Type: cell-based
Conditions: n given per cell

## CC1(C)C(=O)C(c2ccccc2)=C1c1ccc(S(C)(=O)=O)cc1 [Example 16, 4,4-Dimethyl-3-(4-methylsulfonylphenyl)-2-phenyl-2-cyclobuten-1-one]
  IC50: 520 nM
